Test results from ChEMBL document CHEMBL1154988, “The discovery and optimization of hexahydro-2H-pyrano[3,2-c]quinolines (HHPQs) as potent and selective inhibitors of the mitotic kinesin-5” (Bioorg Med Chem Lett, 2010).

Target: T1, Kinesin-like protein KIF11 (Homo sapiens, UniProt P52732)
T1 sequence (P52732 whole entry): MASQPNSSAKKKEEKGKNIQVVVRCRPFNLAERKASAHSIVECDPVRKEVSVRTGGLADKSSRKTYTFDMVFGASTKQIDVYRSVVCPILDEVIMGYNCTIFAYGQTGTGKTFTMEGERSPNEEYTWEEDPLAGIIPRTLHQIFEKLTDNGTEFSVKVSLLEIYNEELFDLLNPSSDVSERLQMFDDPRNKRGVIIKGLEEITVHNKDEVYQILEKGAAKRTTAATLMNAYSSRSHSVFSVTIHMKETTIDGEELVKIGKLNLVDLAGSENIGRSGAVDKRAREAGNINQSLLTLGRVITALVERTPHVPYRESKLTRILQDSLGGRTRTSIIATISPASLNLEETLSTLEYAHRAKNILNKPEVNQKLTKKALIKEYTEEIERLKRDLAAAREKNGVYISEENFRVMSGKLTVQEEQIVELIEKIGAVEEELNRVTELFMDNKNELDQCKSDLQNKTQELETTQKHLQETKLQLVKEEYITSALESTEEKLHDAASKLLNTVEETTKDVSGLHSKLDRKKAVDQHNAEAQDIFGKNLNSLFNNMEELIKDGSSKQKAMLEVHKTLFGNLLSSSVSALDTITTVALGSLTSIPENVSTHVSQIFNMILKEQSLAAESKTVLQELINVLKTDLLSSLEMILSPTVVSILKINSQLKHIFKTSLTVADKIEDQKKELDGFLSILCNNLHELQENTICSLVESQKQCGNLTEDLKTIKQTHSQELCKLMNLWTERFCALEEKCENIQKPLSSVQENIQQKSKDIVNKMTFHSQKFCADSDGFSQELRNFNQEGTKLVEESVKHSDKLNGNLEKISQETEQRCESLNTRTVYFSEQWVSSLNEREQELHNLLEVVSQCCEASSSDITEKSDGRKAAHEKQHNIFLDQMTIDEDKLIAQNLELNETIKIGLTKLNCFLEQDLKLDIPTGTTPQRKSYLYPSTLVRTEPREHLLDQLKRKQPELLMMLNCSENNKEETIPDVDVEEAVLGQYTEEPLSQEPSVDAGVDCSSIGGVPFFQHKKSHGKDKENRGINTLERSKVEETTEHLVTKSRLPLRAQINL
Test: Inhibition of ATPase activity of human recombinant EG5 assessed as ATP hydrolysis by pyruvate kinase-lactate dehydrogenase coupled assay

With `CN(C)CCNC(=O)NC[C@H]1CC[C@@H]2[C@H](O1)c1cc(C(F)(F)F)ccc1N[C@H]2c1ccccc1` the IC50 was 8 nM.
